## Membrane permeability of cyclic peptides

Source: CycPeptMPDB (Li et al. 2023), which took these values from Kelly et al. 2021, doi:10.1021/jacs.0c06115.

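The data file gives no further conditions (lipid, pH, time, direction or concentration), and values from different papers need not be comparable. The list need not hold all peptides of the study. Peptides that the database sets to -10, its floor, are left out.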

PAMPA measures passive passage through an artificial lipid membrane. MDCK: transport across canine kidney epithelial cells. Permeability is in 10^-6 cm/s, converted from the database's log10 values; higher is more permeable. "–" marks a cell with nothing listed here.

| SMILES | PAMPA (10^-6 cm/s) | MDCK (10^-6 cm/s) |
|---|---|---|
| CC(=O)N1CCC[C@H]1C(=O)N[C@@H]1C(=O)N[C@H](CC(C)C)C(=O)N[C@@H](CC(C)C)C(=O)N[C@@H](CC(C)C)C(=O)N[C@H](CC(C)C)C(=O)N(C)[C@H](C)C(=O)N[C@@H](CC(C)C)C(=O)N2CCC[C@@H]2C(=O)O[C@@H]1C | 9.8 | – |
| CC(=O)N[C@@H]1C(=O)N2CCC[C@H]2C(=O)N(C)[C@H](CC(C)C)C(=O)N[C@@H](CC(C)C)C(=O)N[C@@H](CC(C)C)C(=O)N[C@@H](CC(C)C)C(=O)N[C@H](C)C(=O)N[C@@H](CC(C)C)C(=O)N2CCC[C@@H]2C(=O)O[C@@H]1C | 0.069 | – |
| CC(=O)N1CCC[C@@H]1C(=O)N(C)[C@H](CC(C)C)C(=O)N[C@@H]1C(=O)N(C)[C@@H](CC(C)C)C(=O)N(C)[C@H](CC(C)C)C(=O)N[C@@H](CC(C)C)C(=O)N[C@@H](C)C(=O)N[C@@H](CC(C)C)C(=O)N2CCC[C@@H]2C(=O)O[C@@H]1C | 0.19 | – |
| CC(=O)N1CCC[C@@H]1C(=O)N(C)[C@H](CC(C)C)C(=O)N[C@@H]1C(=O)N[C@@H](CC(C)C)C(=O)N(C)[C@@H](CC(C)C)C(=O)N[C@@H](CC(C)C)C(=O)N(C)[C@H](C)C(=O)N[C@H](CC(C)C)C(=O)N2CCC[C@@H]2C(=O)O[C@@H]1C | 3.5 | – |
| CC(=O)N1CCC[C@H]1C(=O)N[C@@H]1C(=O)N[C@H](CC(C)C)C(=O)N(C)[C@H](CC(C)C)C(=O)N(C)[C@@H](CC(C)C)C(=O)N(C)[C@@H](CC(C)C)C(=O)N(C)[C@@H](C)C(=O)N[C@@H](CC(C)C)C(=O)N2CCC[C@@H]2C(=O)O[C@@H]1C | 8.5 | – |
| CC(=O)N1CCC[C@H]1C(=O)N(C)[C@@H](CC(C)C)C(=O)N[C@@H]1C(=O)N(C)[C@@H](CC(C)C)C(=O)N(C)[C@@H](CC(C)C)C(=O)N[C@@H](CC(C)C)C(=O)N(C)[C@H](C)C(=O)N[C@@H](CC(C)C)C(=O)N2CCC[C@H]2C(=O)O[C@@H]1C | 0.89 | – |
| CC(=O)N1CCC[C@H]1C(=O)N(C)[C@H](CC(C)C)C(=O)N[C@@H]1C(=O)N[C@H](CC(C)C)C(=O)N(C)[C@@H](CC(C)C)C(=O)N[C@H](CC(C)C)C(=O)N[C@H](C)C(=O)N[C@@H](CC(C)C)C(=O)N2CCC[C@H]2C(=O)O[C@@H]1C | 1.2 | 0.89 |
| CC(=O)N1CCC[C@H]1C(=O)N(C)[C@H](CC(C)C)C(=O)N[C@@H]1C(=O)N[C@@H](CC(C)C)C(=O)N[C@H](CC(C)C)C(=O)N(C)[C@@H](CC(C)C)C(=O)N(C)[C@@H](C)C(=O)N[C@@H](CC(C)C)C(=O)N2CCC[C@@H]2C(=O)O[C@@H]1C | 4.3 | – |
| CC(=O)N1CCC[C@H]1C(=O)N(C)[C@H](CC(C)C)C(=O)N[C@@H]1C(=O)N(C)[C@@H](CC(C)C)C(=O)N(C)[C@H](CC(C)C)C(=O)N(C)[C@H](CC(C)C)C(=O)N(C)[C@H](C)C(=O)N[C@H](CC(C)C)C(=O)N2CCC[C@@H]2C(=O)O[C@@H]1C | 4.3 | – |
| CC(=O)N1CCC[C@@H]1C(=O)N(C)[C@H](CC(C)C)C(=O)N[C@@H]1C(=O)N(C)[C@H](CC(C)C)C(=O)N[C@@H](CC(C)C)C(=O)N(C)[C@H](CC(C)C)C(=O)N(C)[C@@H](C)C(=O)N[C@H](CC(C)C)C(=O)N2CCC[C@H]2C(=O)O[C@@H]1C | 6.9 | – |
| CC(=O)N1CCC[C@H]1C(=O)N(C)[C@@H](CC(C)C)C(=O)N[C@@H]1C(=O)N(C)[C@@H](CC(C)C)C(=O)N[C@@H](CC(C)C)C(=O)N(C)[C@H](CC(C)C)C(=O)N(C)[C@@H](C)C(=O)N[C@@H](CC(C)C)C(=O)N2CCC[C@H]2C(=O)O[C@@H]1C | 5.4 | – |
| CC(=O)N[C@@H]1C(=O)N2CCC[C@H]2C(=O)N(C)[C@H](CC(C)C)C(=O)N(C)[C@H](CC(C)C)C(=O)N(C)[C@H](CC(C)C)C(=O)N(C)[C@@H](CC(C)C)C(=O)N(C)[C@@H](C)C(=O)N[C@@H](CC(C)C)C(=O)N2CCC[C@@H]2C(=O)O[C@@H]1C | 1.6 | – |
| CC(=O)N1CCC[C@H]1C(=O)N[C@@H]1C(=O)N[C@H](CC(C)C)C(=O)N[C@@H](CC(C)C)C(=O)N[C@@H](CC(C)C)C(=O)N[C@H](CC(C)C)C(=O)N[C@@H](C)C(=O)N[C@@H](CC(C)C)C(=O)N2CCC[C@@H]2C(=O)O[C@@H]1C | 0.89 | – |
| CC(=O)N1CCC[C@H]1C(=O)N(C)[C@@H](CC(C)C)C(=O)N[C@@H]1C(=O)N[C@H](CC(C)C)C(=O)N(C)[C@@H](CC(C)C)C(=O)N[C@@H](CC(C)C)C(=O)N[C@@H](C)C(=O)N[C@H](CC(C)C)C(=O)N2CCC[C@H]2C(=O)O[C@@H]1C | 0.81 | – |
| CC(=O)N1CCC[C@@H]1C(=O)N(C)[C@@H](CC(C)C)C(=O)N[C@@H]1C(=O)N(C)[C@H](CC(C)C)C(=O)N(C)[C@@H](CC(C)C)C(=O)N(C)[C@H](CC(C)C)C(=O)N(C)[C@H](C)C(=O)N[C@@H](CC(C)C)C(=O)N2CCC[C@H]2C(=O)O[C@@H]1C | 3.6 | – |
| CC(=O)N1CCC[C@H]1C(=O)N[C@@H]1C(=O)N[C@H](CC(C)C)C(=O)N(C)[C@@H](CC(C)C)C(=O)N[C@@H](CC(C)C)C(=O)N[C@@H](CC(C)C)C(=O)N(C)[C@@H](C)C(=O)N[C@@H](CC(C)C)C(=O)N2CCC[C@@H]2C(=O)O[C@@H]1C | 1.6 | – |
| CC(=O)N1CCC[C@H]1C(=O)N[C@@H]1C(=O)N(C)[C@H](CC(C)C)C(=O)N[C@H](CC(C)C)C(=O)N[C@@H](CC(C)C)C(=O)N[C@H](CC(C)C)C(=O)N(C)[C@H](C)C(=O)N[C@@H](CC(C)C)C(=O)N2CCC[C@@H]2C(=O)O[C@@H]1C | 0.74 | – |
| CC(=O)N1CCC[C@H]1C(=O)N(C)[C@H](CC(C)C)C(=O)N[C@@H]1C(=O)N(C)[C@@H](CC(C)C)C(=O)N[C@H](CC(C)C)C(=O)N[C@@H](CC(C)C)C(=O)N[C@@H](C)C(=O)N[C@@H](CC(C)C)C(=O)N2CCC[C@H]2C(=O)O[C@@H]1C | 0.32 | – |
| CC(=O)N1CCC[C@@H]1C(=O)N(C)[C@H](CC(C)C)C(=O)N[C@@H]1C(=O)N[C@H](CC(C)C)C(=O)N[C@@H](CC(C)C)C(=O)N(C)[C@H](CC(C)C)C(=O)N(C)[C@@H](C)C(=O)N[C@@H](CC(C)C)C(=O)N2CCC[C@H]2C(=O)O[C@@H]1C | 2.9 | – |

Extract of 2 entries:

{"smiles": "CC(=O)N1CCC[C@@H]1C(=O)N(C)[C@@H](CC(C)C)C(=O)N[C@@H]1C(=O)N(C)[C@H](CC(C)C)C(=O)N(C)[C@@H](CC(C)C)C(=O)N(C)[C@H](CC(C)C)C(=O)N(C)[C@H](C)C(=O)N[C@@H](CC(C)C)C(=O)N2CCC[C@H]2C(=O)O[C@@H]1C", "PAMPA (10^-6 cm/s)": "3.6"}
{"smiles": "CC(=O)N1CCC[C@H]1C(=O)N[C@@H]1C(=O)N[C@H](CC(C)C)C(=O)N[C@@H](CC(C)C)C(=O)N[C@@H](CC(C)C)C(=O)N[C@H](CC(C)C)C(=O)N(C)[C@H](C)C(=O)N[C@@H](CC(C)C)C(=O)N2CCC[C@@H]2C(=O)O[C@@H]1C", "PAMPA (10^-6 cm/s)": "9.8"}